Our source for the Ki and IC50 values is ChEMBL document CHEMBL1136809, “Synthesis and structure-affinity relationships of novel N-(1-ethyl-4-methylhexahydro-1,4-diazepin-6-yl)pyridine-3-carboxamides with potent serotonin 5-HT3 and dopamine D2 receptor antagonistic activity” (J Med Chem, 2003).

By UniProt entry, the sequences of proteins in these tests, tags left out. Where a name states a change or a piece, a line headed by the entry shows the natural chain unless it says otherwise.
UniProt P35563, whole entry: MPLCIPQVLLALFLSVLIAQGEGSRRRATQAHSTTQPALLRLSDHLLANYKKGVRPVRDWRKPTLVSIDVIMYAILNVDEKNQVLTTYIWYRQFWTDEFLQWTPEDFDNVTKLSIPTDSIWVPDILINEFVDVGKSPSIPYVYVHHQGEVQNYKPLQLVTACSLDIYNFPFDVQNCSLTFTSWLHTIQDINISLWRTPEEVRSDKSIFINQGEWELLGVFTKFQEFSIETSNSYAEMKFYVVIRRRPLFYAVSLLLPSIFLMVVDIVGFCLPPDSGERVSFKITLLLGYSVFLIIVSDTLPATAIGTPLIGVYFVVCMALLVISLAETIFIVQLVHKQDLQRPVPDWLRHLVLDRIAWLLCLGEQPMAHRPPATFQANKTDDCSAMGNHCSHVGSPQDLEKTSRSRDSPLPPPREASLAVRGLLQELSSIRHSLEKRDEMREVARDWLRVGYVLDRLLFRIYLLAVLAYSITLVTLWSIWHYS
UniProt Q9JJ16: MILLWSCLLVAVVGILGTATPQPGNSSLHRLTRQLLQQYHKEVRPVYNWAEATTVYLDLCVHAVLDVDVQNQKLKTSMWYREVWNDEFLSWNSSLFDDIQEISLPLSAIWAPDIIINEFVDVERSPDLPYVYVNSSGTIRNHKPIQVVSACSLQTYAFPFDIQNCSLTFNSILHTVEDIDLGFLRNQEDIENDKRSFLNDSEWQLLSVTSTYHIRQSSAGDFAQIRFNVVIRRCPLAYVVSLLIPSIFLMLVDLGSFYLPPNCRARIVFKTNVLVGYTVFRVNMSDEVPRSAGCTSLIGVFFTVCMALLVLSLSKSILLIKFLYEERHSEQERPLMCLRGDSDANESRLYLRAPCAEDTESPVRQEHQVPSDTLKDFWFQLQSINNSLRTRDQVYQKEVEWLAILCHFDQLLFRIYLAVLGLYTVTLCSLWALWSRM
UniProt P61169, whole entry: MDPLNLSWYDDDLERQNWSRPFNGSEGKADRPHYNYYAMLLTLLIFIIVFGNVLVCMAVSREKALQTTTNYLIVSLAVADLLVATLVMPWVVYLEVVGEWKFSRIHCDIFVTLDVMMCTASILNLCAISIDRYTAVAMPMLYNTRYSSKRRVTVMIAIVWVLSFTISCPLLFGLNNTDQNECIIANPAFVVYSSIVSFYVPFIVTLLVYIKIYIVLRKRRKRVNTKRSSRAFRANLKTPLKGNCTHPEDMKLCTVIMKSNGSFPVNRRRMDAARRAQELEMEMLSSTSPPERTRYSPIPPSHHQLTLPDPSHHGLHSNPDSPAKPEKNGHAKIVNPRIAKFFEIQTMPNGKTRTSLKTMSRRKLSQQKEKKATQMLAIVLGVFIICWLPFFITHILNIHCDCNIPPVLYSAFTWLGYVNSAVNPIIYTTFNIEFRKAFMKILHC

What is called Ki is a measure of affinity in units of concentration, obtained from inhibition or displacement. The low end stands for higher affinity, the high end for lower affinity. For orientation: IC50 means the concentration that gives 50% inhibition. Read a low IC50 as greater potency.

For assay [1], the target named is Serotonin 3 (5-HT3) receptor (Rattus norvegicus, UniProt P35563+Q9JJ16). As to the kind of experiment: Inhibition of [3H]GR-65630 binding to rat cortical membrane serotonin 5-hydroxytryptamine 3 receptor.
In assay [2] the target is T1, D(2) dopamine receptor (Rattus norvegicus, UniProt P61169). Description: Concentration of compound required to inhibit the binding of radioligand [3H]spiperone to Dopamine receptor D2 in rat brain synaptic membrane. In kind it is cell membranes.
For assay [3], the target named is T1, D(2) dopamine receptor. As to the kind of experiment: Affinity towards Dopamine receptor D2 in rat striatum using [3H]spiperone as radioligand. In kind it is tissue-based.

In assay [1], `COc1cc(N)c(Cl)cc1C(=O)NC1CCN(CCCOc2ccc(F)cc2)CC1OC` (stereo not drawn) [CISAPRIDE] showed a Ki of 94.7 nM.

Regarding `CCN(CC)CCNC(=O)c1cc(Cl)c(N)cc1OC` [METOCLOPRAMIDE], in assay [2], the IC50 amounted to 444 nM. Further, the Ki in assay [3] is 303 nM.
